Laboratory results taken from patent US20260078130A1, “NAMPT MODULATORS, PREPARATIONS, AND USES THEREOF” (SIRONAX LTD., priority 2022, published 2026).
Read-outs that look alike come from different tables or passages of the source.

Protein sequences, listed by entry. Tags and fused reporters are not part of them.
UniProt P43490, whole entry: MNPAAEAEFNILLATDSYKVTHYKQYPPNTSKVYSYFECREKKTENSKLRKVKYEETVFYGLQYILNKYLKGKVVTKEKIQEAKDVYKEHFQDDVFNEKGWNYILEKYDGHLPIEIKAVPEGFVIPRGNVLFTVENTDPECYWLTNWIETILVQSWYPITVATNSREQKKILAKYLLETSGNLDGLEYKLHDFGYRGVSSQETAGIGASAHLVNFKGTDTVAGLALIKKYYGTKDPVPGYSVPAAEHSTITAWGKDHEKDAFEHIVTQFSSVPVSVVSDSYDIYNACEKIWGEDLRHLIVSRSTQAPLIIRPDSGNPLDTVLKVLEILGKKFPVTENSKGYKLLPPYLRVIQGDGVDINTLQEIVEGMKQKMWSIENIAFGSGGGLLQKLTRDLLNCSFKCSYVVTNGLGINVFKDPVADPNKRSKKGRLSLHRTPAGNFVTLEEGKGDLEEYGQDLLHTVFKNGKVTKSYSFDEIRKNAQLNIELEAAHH

Key:
[1] = molecular target: human enzyme NAMPT (full length) (Homo sapiens, UniProt P43490); assay: NMN fluorescence biochemical assay (stimulation of NMN synthesis by NAMPT); conditions: for Enzymatic Emax: fold change of maximal activation compared to DMSO; for EC50: read-out: Enzymatic EC50, concentration giving half-maximal activation
[2] = tested on: endogenous NAMPT in U2OS cells; assay: Cellular NAD+ modulation assay (NAD/NADH-Glo, U2OS cells)
[3] = 24 hours incubation, cellular NAD+
[4] = read-out: Cellular EC50, 24 hours incubation, cellular NAD+
[5] = NMN fluorescence assay, purified human NAMPT 100 nM

## Cn1ncc(Cl)c1CC1c2ccccc2C(=O)N1C[C@H]1C[C@]2(C1)OC(=O)NC2=O (single isomer, unassigned) [Compound 569/644 (RT = 9.799 min)]
[1]
  Enzymatic Emax: B (3≥B>2)
[2]; [3]
  Cellular Emax: B (1.5≥B>1.2)
[2]; [4]
  EC50: 500 to 5000 nM

## O=C1NCC2(CC(F)(CN3C(=O)c4ccccc4C3Cc3ncccc3Br)C2)O1 (single isomer, unassigned) [Compound 441/442 (RT = 4.47 min)]
[1]
  Enzymatic Emax: B (3≥B>2)
[1]; [5]
  EC50: < 500 nM
[2]; [3]
  Cellular Emax: A (A>1.5)
[2]; [4]
  EC50: < 500 nM

## Cn1ncc(Cl)c1CC1c2cc(F)cc(F)c2C(=O)N1C[C@H]1C[C@]2(CNC(=O)O2)C1 (single isomer, unassigned) [Compound 549/550 (RT = 3.877 min)]
[1]
  Enzymatic Emax: A (A>3)
[1]; [5]
  EC50: 500 to 5000 nM
[2]; [3]
  Cellular Emax: A (A>1.5)
[2]; [4]
  EC50: < 500 nM

## Cn1ncc(Cl)c1CC1c2ccccc2C(=O)N1C/C=C/c1nn[nH]c1F (single isomer, unassigned) [Compound 570/571 (RT = 7.223 min)]
[1]
  Enzymatic Emax: A (A>3)
[1]; [5]
  EC50: < 500 nM
[2]; [3]
  Cellular Emax: A (A>1.5)
[2]; [4]
  EC50: < 500 nM

## Cc1ncnc(C#N)c1CC1c2ccccc2C(=O)N1C[C@H]1C[C@]2(CNC(=O)O2)C1 (single isomer, unassigned) [Compound 545/546 (RT = 9.713 min)]
[1]
  Enzymatic Emax: A (A>3)
[1]; [5]
  EC50: < 500 nM
[2]; [3]
  Cellular Emax: A (A>1.5)
[2]; [4]
  EC50: < 500 nM

## O=C1c2ccccc2C(Cc2ncccc2C(F)F)N1Cc1ccc2[nH]c(=O)oc2c1 (single isomer, unassigned) [Compound 192/193 (RT = 1.680 min)]
[1]
  Enzymatic Emax: A (A>3)
[1]; NMN synthesis by purified human NAMPT (100 nM)
  EC50: 500 to 5000 nM
[2]; 24 hours incubation with compound
  Cellular Emax: A (A>1.5)
[2]; read-out: Cellular EC50, 24 hours incubation with compound
  EC50: 500 to 5000 nM
